From PMC3871618, “Purvalanol A, Olomoucine II and Roscovitine Inhibit ABCB1 Transporter and Synergistically Potentiate Cytotoxic Effects of Daunorubicin In Vitro” (PLoS ONE, 2013)
Values joined by “and” are separate entries in the source; they are usually repeats but may differ in a detail not shown here. Equal values may be shown once.

Test system: MDCKII-ABCB1 cells
Test: XTT cytotoxicity, CDKi + DNR combination (Chou-Talalay)
Assay type: cell-based
Method: 1×10^4 MDCKII-ABCB1, 1×10^4 MDCKII parent, 2×10^4 HCT-8, or 2×10^4 HepG2 cells were grown in 96-well culture plates and incubated for 24 h. Individual CDKi diluted with growth medium were added to the exponentially growing cells and the resulting mixtures were incubated for 72 h at 37°C, 5% CO2. Cytotoxicity was then assessed using the XTT assay as follows: cells were incubated with 0.167 mg/mL XTT and 4 µM PMS in Opti-MEM for 2 h. The absorbance of the soluble formazan released was measured at 470 nm on a microplate reader (Tecan, Männedorf, Switzerland).
The combination index (CI) method of Chou-Talalay, based on the median-effect equation, was used to calculate combined drug effects. This approach offers quantitative definitions for additive, synergistic and antagonistic effects (CI values of 0.9–1.1, <0.9, and >1.1, respectively). Combination experiments were performed in a constant-ratio experimental design as recommended for the most efficient data analysis, and the generated data were used to quantify dose-reduction indices (DRI) for pairs of the tested drugs. DRI represents the fold-change of a focal effect when individual agents are used simultaneously relative to their separate effects, and their activity is synergistic if DRI > 1. […] The data acquired from these drug combination experiments were analyzed using CompuSyn ver. 3.0.1 software (ComboSyn Inc., Paramus, NJ, USA).

[1] = MDCKII-ABCB1, 72 h, DNR combined with Olomoucine II, ratio 1∶0.7
[2] = MDCKII-ABCB1, 72 h, DNR combined with Purvalanol A, ratio 1∶0.9
[3] = MDCKII-ABCB1, 72 h, DNR combined with Roscovitine, ratio 1∶0.8

| Structure (SMILES) | Combination index (CI) category, combination with DNR | DRI at Fa 0.5, drug II (CDKi) (MDCKII-ABCB1, 72 h, CDKi combined with DNR at constant ratio) | DRI at Fa 0.5, drug I (DNR) [1] | DRI at Fa 0.75, drug I (DNR) [1] | DRI at Fa 0.9, drug I (DNR) [1] | DRI at Fa 0.5, drug I (DNR) [2] | DRI at Fa 0.75, drug I (DNR) [2] | DRI at Fa 0.9, drug I (DNR) [2] | DRI at Fa 0.5, drug I (DNR) [3] | DRI at Fa 0.75, drug I (DNR) [3] | DRI at Fa 0.9, drug I (DNR) [3] |
| --- | --- | --- | --- | --- | --- | --- | --- | --- | --- | --- | --- |
| CC[C@H](CO)Nc1nc(NCc2ccccc2)c2ncn(C(C)C)c2n1 [roscovitine] | synergistic category of drug combination effects across almost the whole fraction of cells affected (Fa) range | 3.20±0.03 | – | – | – | – | – | – | – | – | – |
| COc1cccc2c1C(=O)c1c(O)c3c(c(O)c1C2=O)C[C@@](O)(C(C)=O)C[C@@H]3O[C@H]1C[C@H](N)[C@H](O)[C@H](C)O1 [DNR, daunorubicin] | – | – | 2.68±0.26 | 3.3 and 3.32±0.22 | 4.12±0.21 | 3.76±0.07 | 4.6 and 4.56±0.07 | 5.54±0.06 | 3.06±0.03 | 3.8 and 3.80±0.03 | 4.72±0.05 |
